The values below come from ChEMBL document CHEMBL1156934, “Synthesis and SAR of thiazolidinedione derivatives as 15-PGDH inhibitors” (Bioorg Med Chem, 2010).

This assay addresses T1, 15-hydroxyprostaglandin dehydrogenase [NAD(+)] (Homo sapiens, UniProt P15428).
T1 sequence (P15428 whole entry): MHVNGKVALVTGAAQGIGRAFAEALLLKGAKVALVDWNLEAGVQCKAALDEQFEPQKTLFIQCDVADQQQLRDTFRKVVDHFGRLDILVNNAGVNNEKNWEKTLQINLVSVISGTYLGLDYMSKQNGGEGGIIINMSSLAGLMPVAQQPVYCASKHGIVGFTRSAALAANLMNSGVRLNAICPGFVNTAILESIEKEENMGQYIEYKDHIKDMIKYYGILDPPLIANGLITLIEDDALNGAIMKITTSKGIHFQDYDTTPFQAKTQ
The assay can be described thus: Inhibition of human 15PGDH expressed in Escherichia coli BL-21 by fluorescence spectrophotometry.

The IC50 is the concentration needed to halve the response being measured. The low end stands for greater potency in that assay, the high end for weaker potency in that assay.

For `O=C1NC(=O)/C(=C/c2ccc(OCc3ccccn3)cc2)S1`, the IC50 came out at 2580 nM.
